Patent US20100035866A1, “NOVEL SUBSTITUTED-1, 1-DIOXO-BENZO[1,2,4]THIADIAZIN-3ONES, PREPARATION METHOD THEREOF, AND PHARMACEUTICAL COMPOSITION CONTAINING THE SAME” (KOREA RESEARCH INSTITUTE OF CHEMICAL TECHNOLOGY, priority 2006, published 2010)

Amino acid sequences for entries named in this document (tags omitted).
UniProt P50406, whole entry: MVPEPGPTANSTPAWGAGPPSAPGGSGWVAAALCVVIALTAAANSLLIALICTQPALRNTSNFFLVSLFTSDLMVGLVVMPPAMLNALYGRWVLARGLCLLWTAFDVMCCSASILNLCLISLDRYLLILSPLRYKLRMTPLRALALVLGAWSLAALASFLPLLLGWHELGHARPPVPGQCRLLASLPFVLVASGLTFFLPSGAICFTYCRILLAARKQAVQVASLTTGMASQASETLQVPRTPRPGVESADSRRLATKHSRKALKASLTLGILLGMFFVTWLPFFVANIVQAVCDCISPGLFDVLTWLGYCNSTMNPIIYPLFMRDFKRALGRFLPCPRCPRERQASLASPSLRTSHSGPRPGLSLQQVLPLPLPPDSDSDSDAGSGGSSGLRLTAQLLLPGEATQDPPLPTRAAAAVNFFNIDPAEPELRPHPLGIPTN

Molecular target: 5-HT6 receptors (Homo sapiens, UniProt P50406)
Assay: Adenylyl cyclase activity (cAMP accumulation) in HeLa cells transfected with human 5-HT6 receptor
Conditions: FIG. 1

## CSc1ccc2c(c1)C(N1CCN(C)CC1)Cc1ccccc1S2 (stereo not shown) [methiothepin, reference compound]
  5-HT-induced increase in cAMP level inhibited (in words): inhibited
